These results are taken from US20040229872A1, “Substituted cyclohexane-1,4-diamine compounds with anti-diarrhea and peripheral analgesic activity” (Gruenenthal GmbH, priority 2001, published 2004).

Sequences of proteins named here, by UniProt entry; tags and fusion partners are left off.
UniProt P35372, whole entry: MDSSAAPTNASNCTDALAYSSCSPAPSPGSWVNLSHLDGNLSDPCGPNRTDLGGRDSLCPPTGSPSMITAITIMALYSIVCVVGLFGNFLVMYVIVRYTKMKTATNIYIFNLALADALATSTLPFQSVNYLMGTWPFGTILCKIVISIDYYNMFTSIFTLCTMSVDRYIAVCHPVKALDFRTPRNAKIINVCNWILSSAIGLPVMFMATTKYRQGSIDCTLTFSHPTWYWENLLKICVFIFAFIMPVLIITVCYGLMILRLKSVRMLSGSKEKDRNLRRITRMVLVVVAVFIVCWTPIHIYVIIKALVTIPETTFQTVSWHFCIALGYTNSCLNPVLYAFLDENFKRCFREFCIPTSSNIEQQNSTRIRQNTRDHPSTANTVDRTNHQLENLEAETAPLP

Assay [1] addresses μ-opioid receptor (Homo sapiens, UniProt P35372). Description: μ-opioid receptor binding, radioactive displacement assay.
Assay [2] relates to mice. Description: analgesia testing in the tail flick test in mice. The conditions noted are these: 10.0 mg/kg i.v.

SMILES strings stand for the structures. Like-named read-outs stand apart in the source and are kept apart here.

For `CN(C)C1(c2ccccc2)CCC(NC(CCc2ccccc2)C(=O)O)CC1` (racemic), the Ki amounted to 0.8 nM in assay [1] (read-out: μ-Opioid Receptor Ki) and 140 nM in assay [1] (read-out: μ-Opioid Receptor Ki, hydrochloride). In assay [2], the “CNS Analgesia (tail flick)” value is 10.0 = ineff.
